Results as given in patent US20230121313A1 (priority 2019, published 2023).

Assays:
[1] = system: female Sprague-Dawley rats; assay: 14-day repeated dose neurotoxicity study, intranasal esketamine HCl (clinical observations, brain histopathology, toxicokinetics); conditions: for Brain histopathology (neuronal necrosis / Olney lesions in PCG/RSC): 14-day study, esketamine HCl intranasal up to 54 mg/day, (+)MK-801 maleate single 1 mg/kg sc, 48 h after last dose
[2] = system: female Sprague-Dawley rats; assay: Single dose neurotoxicity study, intranasal esketamine HCl (clinical observations, brain histopathology, toxicokinetics); conditions: for Brain histopathology (neuronal necrosis / Olney lesions in PCG/RSC): esketamine HCl intranasal up to 72 mg, 48 and 96 h post-dose
NMDA receptor = conditions: cited from earlier work

Substance: (+)MK-801 maleate [reference compound]
- Brain histopathology (neuronal necrosis / Olney lesions in PCG/RSC) ([1]; 1 mg/kg): presence
- Brain histopathology (neuronal necrosis / Olney lesions in PCG/RSC) ([1]; listed as (+)MK-801, 1 mg/kg): presence; also recorded: showed neuronal necrosis
- Animals (of 12) with lesions scored marked ([1]; (+)MK-801 maleate 1 mg/kg sc, repeated dose study): 7
- Body weight loss within the first 48 hours after treatment ([2]; (+)MK-801 maleate 1 mg/kg sc): 13-14%
- Severity grade of neuronal necrosis in PCG/RSC (most lesions) ([2]; (+)MK-801 maleate 1 mg/kg sc, both studies): moderate or marked (grade 3 or 4)
- Animals (of 30 females) with lesions scored marked ([2]; (+)MK-801 maleate 1 mg/kg sc, single dose study): 25
- Mortality ([2]; (+)MK-801 maleate single 1 mg/kg sc, single dose and repeated dose study): No mortality was noted
- Maximum tolerated dose (MTD) for a single subcutaneous injection ([2]; dose-range finding study, female Sprague-Dawley rats 13-14 weeks): 1 mg/kg body weight
- Brain histopathology (neuronal necrosis / Olney lesions in PCG/RSC) ([2]; single dose study, (+)MK-801 maleate 1 mg/kg sc): neuronal necrosis was observed; also recorded: neuronal necrosis in the PCG/RSC of all animals
- Brain histopathology (neuronal necrosis / Olney lesions in PCG/RSC) ([2]; single dose study, (+)MK-801 maleate 1 mg/kg sc, listed as (+)MK801 maleate): induced neurodegenerative lesions
- Potency of the (+)-enantiomer relative to the (−)-enantiomer (NMDA receptor): 7 times

Entries after “also recorded” stand apart in the source; their conditions may differ.
